Measured values reported in patent US20240293387A1, “Methods of Treating Fabry Disease in Pediatric Patients” (Amicus Therapeutics, Inc., priority 2021, published 2024).

Assay: Population PK (popPK) model of migalastat in adults (NONMEM, bootstrap)
Set-up: species or system human
Conditions: for Typical EGFR-related estimate, Estimate (% RSE) / Typical total CL/F: Fabry disease
Procedure: A population pharmacokinetics (popPK) model previously developed from healthy adult volunteers and adult patients with Fabry disease after oral migalastat administration. After pooling plasma concentration-time data from Phase I, II, and III studies of AT1001 administered orally in adults using a range of doses from 25 mg to 675 mg and regimens under fasting conditions. […] In contrast, other covariates such as sex, age, drug formulation (solution or suspension vs 25 mg capsule vs 150 mg capsule) were not statistically/clinically significant. Since renal function gradually increases from birth and reaches adult levels by the second year of life (Rubin 1949), there are no expected age-dependent changes in eGFR in the pediatric population 2 years and older than adults. Additionally, pediatric patients with Fabry disease usually have a normal renal function or may experience renal hyperfiltration (Hopkin 2008); therefore, weight-based dosing regimens, assuming that pediatrics have a normal renal function, were planned for the simulations in pediatric Fabry patients. NONMEM program was used to develop the population PK model of migalastat in adults using first-order conditional estimation with interaction (FOCE-I). Simulations were conducted using NONMEM to obtain plasma concentration-time; all graphical analyses were performed using R; noncompartmental analysis and pharmacokinetic parameters summaries were conducted using Phoenix WinNonlin. Bootstrapping and visual predictive checks (VPC)s were conducted using Perl-speaks-NONMEM (PsN) R packages of popED and mrgsolve were used in the optimal sampling strategy. […] The overall purpose of the model development was to come up with a model for pediatric extrapolation. […] Moreover, pediatric CLT/F values extrapolated from the non-renal model were higher than the overall CLT/F approach, resulting in higher pediatric doses for achieving equivalent exposures with adults which was a less conservative approach. Therefore, the overall CLT/F scaling approach is more conservative and was chosen for the final model, which is shown in Table 6. The estimated parameters from bootstrap (see Table 6) were nearly identical to those estimated from the original dataset. All parameters were estimated with adequate precision.

[1] = Bootstrap, EGFR = 90 mL/min/1.73 m^2, body weight ≥ 70 kg
[2] = NONMEM, EGFR = 90 mL/min/1.73 m^2, body weight ≥ 70 kg

In the case of `OC[C@H]1NC[C@H](O)[C@@H](O)[C@H]1O` [migalastat, (2R,3S,4R,5S)-2-(hydroxymethyl) piperdine-3,4,5-triol], the “Typical EGFR-related estimate, Estimate (% RSE)” value [1] is reported as 18.5 (16.0%);, the “Typical total CL/F” value [1] is reported as 14.9 L/h and the “Typical total CL/F” value (Bootstrap, EGFR = 120 mL/min/1.73 m^2, body weight ≥ 70 kg) is reported as 16.4 L/h. For the same compound, the “Typical EGFR-related estimate, Estimate (% RSE)” value (Bootstrap, EGFR > 120 mL/min/1.73 m^2, body weight ≥ 70 kg) was 20.6 (17.3%);, the “Typical EGFR-related estimate, Estimate (% RSE)” value [2] was 18.6 (16.3%); and the “Typical total CL/F” value [2] was 14.8 L/h. The “Typical total CL/F” value (NONMEM, EGFR = 120 mL/min/1.73 m^2, body weight ≥ 70 kg) was 16.5 L/h, the “Typical EGFR-related estimate, Estimate (% RSE)” value (NONMEM, EGFR > 120 mL/min/1.73 m^2, body weight ≥ 70 kg) was 20.9 (17.4%); and the “Average range of migalastat exposure with renal function” value (eGFR values between 30 and 120 mL/min/1.73 m^2) was 3 fold.
